Experimental data from patent publication US7462599.

What was measured:
[Gln^1]-FPP = target: T1, [Gln^1]-FPP
T1 chain: QEP

[Gln^1]-TRH = target: T2, [Gln^1]-TRH
T2 chain: QHP

B1: recombinant human glutaminyl cyclase (QC, EC 2.3.2.5) (protein)
chain: VSPSASAWPEEKNYHQPAILNSSALRQIAEGTSISEMWQNDLQPLLIERYPGSPGSYAARQHIMQRIQRLQADWVLEIDTFLSQTPYGYRSFSNIISTLNPTAKRHLVLACHYDSKYFSHWNNRVFVGATDSAVPCAMMLELARALDKKLLSLKTVSDSKPDLSLQLIFFDGEEAFLHWSPQDSLYGSRHLAAKMASTPHPPGARGTSQLHGMDLLVLLDLIGAPNPTFPNFFPNSARWFERLQAIEHELHELGLLKDHSLEGRYFQNYSYGGVIQDDHIPFLRRGVPVLHLIPSPFPEVWHTMDDNEENLDESTIDNLNKILQVFVLEYLHL
- KM (substrate conversion by QC) ([Gln^1]-FPP): 87 µM
- KM (substrate conversion by QC) ([Gln^1]-TRH): 90 µM
